Laboratory results taken from ChEMBL document CHEMBL4476868, “Benzimidazole derivatives and uses thereof” (2017).

Sequences of proteins named here, by UniProt entry; tags and fusion partners are left off.
UniProt Q9NR19, whole entry: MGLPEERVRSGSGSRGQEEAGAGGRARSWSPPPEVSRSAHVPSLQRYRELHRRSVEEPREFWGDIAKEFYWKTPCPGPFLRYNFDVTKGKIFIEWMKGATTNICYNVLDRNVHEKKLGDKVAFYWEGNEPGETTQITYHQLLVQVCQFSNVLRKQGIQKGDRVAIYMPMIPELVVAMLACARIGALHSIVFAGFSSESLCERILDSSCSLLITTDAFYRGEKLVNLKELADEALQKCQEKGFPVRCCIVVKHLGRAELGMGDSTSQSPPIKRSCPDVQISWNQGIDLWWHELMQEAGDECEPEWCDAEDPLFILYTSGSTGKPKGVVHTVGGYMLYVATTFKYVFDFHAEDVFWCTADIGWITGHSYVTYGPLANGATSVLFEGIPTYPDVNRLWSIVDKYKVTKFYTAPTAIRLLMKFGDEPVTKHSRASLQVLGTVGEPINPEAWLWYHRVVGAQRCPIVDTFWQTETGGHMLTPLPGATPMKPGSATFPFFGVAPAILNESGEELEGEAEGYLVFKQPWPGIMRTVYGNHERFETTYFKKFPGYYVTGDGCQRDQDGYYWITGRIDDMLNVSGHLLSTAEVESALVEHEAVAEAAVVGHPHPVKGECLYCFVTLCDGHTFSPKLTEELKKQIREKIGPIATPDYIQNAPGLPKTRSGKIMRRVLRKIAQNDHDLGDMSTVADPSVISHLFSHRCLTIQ

molecular target: Acetyl-coenzyme A synthetase, cytoplasmic (Homo sapiens, UniProt Q9NR19); assay: Inhibition of N-terminal 6x-histidine tagged human ACSS2 expressed in insect cells assessed as reduction in pyrophosphate production using CoA and ATP incubated for 30 mins by pyrophosphatase coupled enzymatic assay

Row | Structure (SMILES) | IC50 [nM]
1 | CCn1c(C(O)(c2ccccc2)c2ccccc2)nc2cc(OCCCO)ncc21 | > 1000
2 | Cn1c(C(O)(c2ccc(F)cc2)c2ncccc2F)nc2ccc(S(N)(=O)=O)cc21 (centres undefined) | < 50
3 | CCn1c(C(O)(c2ccccc2)c2ccccc2)nc2ccc(C(=O)NC[C@H](C)O)cc21 | 50 to 249
4 | CCn1c(C(O)(c2ccccc2)c2ccccc2)nc2ccc(C(=O)NCC(O)C(F)F)cc21 (centres undefined) | < 50
5 | CCn1c(C(O)(c2ccccc2)c2ccccc2)nc2c(OC)nccc21 | > 1000
6 | CCn1c(C(O)(c2ccccc2)c2ccccc2)nc2ccc(C(=O)NCC3(O)CC3)cc21 | < 50
7 | CCn1c(C(O)(c2ccccc2)c2ccccc2F)nc2ccc(C(=O)NC[C@@H](C)O)cc21 (some centres undefined) | < 50
8 | CCn1c(C(O)(c2ccccc2)c2ccccc2)nc2ccc(OCCNC(C)=O)cc21 | 50 to 249
9 | CCn1c(C(O)(c2ccccc2)c2ccccc2)nc2ccc(C(=O)N[C@@H]3CCC[C@H](O)C3)cc21 | < 50
10 | CCn1c(C(O)(c2ccccc2F)c2ccccc2F)nc2ccc(C(=O)NC[C@@H](C)O)cc21 | < 50
11 | CCn1c(C(O)(c2ccccc2)c2ccccc2)nc2ccc(OCC(=O)OC)cc21 | 50 to 249
12 | CCn1c(C2(O)c3ccccc3-c3ccccc32)nc2ccc(C(=O)NCC(C)O)cc21 (centres undefined) | > 1000
13 | CCn1cccc(NC(=O)c2ccc3nc(C(O)(c4ccccc4)c4ccccc4)n(CC)c3c2)c1=O | < 50
14 | CCn1c(C(O)(c2ccccc2)c2ccccc2)nc2ccc(C(=O)Nc3cnn(CC(C)O)c3)cc21 (centres undefined) | < 50
15 | Cn1c(C(O)(c2ccccc2F)c2ccccc2F)nc2ccc(C(=O)NCCF)cc21 | < 50
16 | CCn1c(C(O)(c2ccccc2)c2ccccc2)nc2ccc(C(=O)NC[C@H](O)CC(C)(F)F)cc21 | < 50
17 | CCn1c(C(O)(c2ccccc2)c2ccccc2)nc2ccc(C(=O)NCCNC(C)=O)cc21 | < 50
18 | CCNC(=O)c1ccc2nc(C(O)(c3ccccc3)c3ccccc3)n(CC)c2c1 | 50 to 249
19 | CCn1cnc(NC(=O)c2ccc3nc(C(O)(c4ccccc4F)c4ccccc4F)n(CC)c3c2)n1 | < 50
20 | C=CC[C@@H](O)CNC(=O)c1ccc2nc(C(O)(c3ccccc3)c3ccccc3)n(CC)c2c1 | < 50

Row | Structure (SMILES) | IC50 [nM]
21 | CCn1c(C(O)(c2ccccc2)c2ccccc2)nc2ccc(C(=O)OC)cc21 | 50 to 249
22 | CCn1cc(NC(=O)c2ccc3nc(C(O)(c4ccccc4)c4ccccc4)n(CC)c3c2)ccc1=O | < 50
23 | CCn1c(C(O)(c2ccccc2)c2ccccc2)nc2ccc(C(=O)O)cc21 | 50 to 249
24 | Cc1ccc2nc(C(CO)(c3ccccc3)c3ccccc3)n(C)c2c1 | > 1000
25 | Cc1cccnc1C(O)(c1ccc(F)cc1)c1nc2ccc(S(N)(=O)=O)cc2n1C (centres undefined) | < 50
26 | CCCC(O)CNC(=O)c1ccc2nc(C(O)(c3ccc(F)cc3)c3ccc(F)cc3)n(C)c2c1 (centres undefined) | < 50
27 | CCn1c(C(O)(c2ccccc2)c2ncccc2C)nc2ccc(CCCO)cc21 (centres undefined) | < 50
28 | CCn1c(C(O)(c2ccccc2)c2ccccc2)nc2c(Cl)cc(C)cc21 | > 1000
29 | CCn1c(C(O)(c2ccccc2)c2ccccc2)nc2ccc(C(=O)NCC(F)F)cc21 | < 50
30 | NS(=O)(=O)c1ccc2nc(C(O)(c3ccccc3F)c3ccccc3F)n(CCO)c2c1 | < 50
31 | C[C@@H](O)CNC(=O)c1ccc2nc(C(O)(c3ccccc3)c3ccccc3)n(C)c2c1 | 50 to 249
32 | CCn1ccc(NC(=O)c2ccc3nc(C(O)(c4ccccc4)c4ccccc4)n(C4COC4)c3c2)n1 | > 1000
33 | CCn1c(C(O)(c2ccccc2)c2ccccc2)nc2c(OCCO)nccc21 | > 1000
34 | CCn1c(C2(O)c3ccccc3Oc3ccccc32)nc2ccc(C(=O)NC[C@@H](C)O)cc21 | > 1000
35 | CCn1ccc(NC(=O)c2ccc3c(c2)nc(C(O)(c2ccccc2)c2ccccc2)n3C)n1 | > 1000
36 | CCn1c(C(O)(c2ccccc2F)c2ccccc2F)nc2ccc(C(=O)NC)cc21 | < 50
37 | CCn1c(C(O)(c2ccccc2)c2ccccc2)nc2ccc(S(=O)(=O)CCO)cc21 | 50 to 249
38 | CCn1c(C(O)(c2ccccc2)c2ccccc2)nc2ccc(C#N)cc21 | 50 to 249
39 | CCn1c(C(O)(c2ccccc2)c2ccccc2)nc2c(OC)cccc21 | > 1000
